Measured values reported in ChEMBL document CHEMBL5727998, “8-amino-2-oxo-1,3-diaza-spiro-[4.5]-decane derivatives” (2020).
Where “and” joins values, the source holds several entries; their conditions need not be identical. Equal values may be shown once.

The chains behind the UniProt entries cited, without tags or fusion partners. Where a name states a change or a piece, a line headed by the entry shows the natural chain unless it says otherwise.
UniProt P41146: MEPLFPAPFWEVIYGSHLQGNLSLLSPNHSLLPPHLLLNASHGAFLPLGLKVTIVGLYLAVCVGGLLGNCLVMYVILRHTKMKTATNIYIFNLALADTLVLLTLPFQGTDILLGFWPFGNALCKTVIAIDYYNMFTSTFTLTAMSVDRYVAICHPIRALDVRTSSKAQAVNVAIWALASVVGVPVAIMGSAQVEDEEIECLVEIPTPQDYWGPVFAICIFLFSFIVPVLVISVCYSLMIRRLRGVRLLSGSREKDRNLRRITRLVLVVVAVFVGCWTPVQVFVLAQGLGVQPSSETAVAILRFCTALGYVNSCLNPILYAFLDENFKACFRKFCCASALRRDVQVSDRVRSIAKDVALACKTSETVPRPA
UniProt P35372, whole entry, looked up: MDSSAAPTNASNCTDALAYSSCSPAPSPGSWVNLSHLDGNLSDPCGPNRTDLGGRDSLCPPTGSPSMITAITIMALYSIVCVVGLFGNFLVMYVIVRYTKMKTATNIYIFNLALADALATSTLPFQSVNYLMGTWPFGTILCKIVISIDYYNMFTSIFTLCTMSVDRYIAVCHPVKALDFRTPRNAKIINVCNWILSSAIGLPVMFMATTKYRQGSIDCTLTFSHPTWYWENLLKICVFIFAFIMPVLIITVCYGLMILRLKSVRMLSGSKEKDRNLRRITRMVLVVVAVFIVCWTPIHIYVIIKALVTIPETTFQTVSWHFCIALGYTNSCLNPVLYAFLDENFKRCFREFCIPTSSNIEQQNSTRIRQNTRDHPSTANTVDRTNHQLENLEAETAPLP

The compounds below were run against Nociceptin receptor (Homo sapiens, UniProt P41146) (assay: Receptor Binding Assay: The hNOP receptor binding assay was performed as homogeneous SPA-assay (scintillation proximity assay) using the assay buffer 50 mM TRIS-HCl. 10 mM MgCl2. 1 mM EDTA (pH 7.4). The final assay volume (250 μl/well) included 0.5 nM of [leucyl-3H]nociceptin as ligand (PerkinElmer Life Sciences. Inc. Boston. Mass. USA). and either test compound in dilution series or 1 μM unlabell).
With `COCCOCCOCCN1C[C@]2(CC[C@](c3ccccc3)(N(C)C)CC2)N(CC2CCC2)C1=O` the Ki was 7.7 nM.
`COCCOCCOCCOCCOCCOCCOCCOCCN1C[C@]2(CC[C@](c3ccccc3)(N(C)C)CC2)N(CC2CCC2)C1=O` was tested, and the Ki was 45 nM.
`CN(C)[C@]1(c2ccccc2)CC[C@]2(CC1)CN(CCS(C)(=O)=O)C(=O)N2CC1(O)CCC1` gave a Ki of 13 nM.
`COC(=O)CCCN1C[C@]2(CC[C@](c3ccccc3)(N(C)C)CC2)N(CC2CCC2)C1=O` was tested, and the Ki was 119 nM and 345 nM.
`CN[C@]1(c2ccccc2)CC[C@]2(CC1)CN(CCS(C)(=O)=O)C(=O)N2CC1(O)CCC1` showed a Ki of 83 nM.
Work on `CN[C@]1(c2ccccc2)CC[C@]2(CC1)CN(CCS(C)(=O)=O)C(=O)N2CC1CCC1` yielded a Ki of 9.5 nM.
Work on `CNC(=O)CCCN1C[C@]2(CC[C@](c3ccccc3)(N(C)C)CC2)N(CC2CCC2)C1=O` yielded a Ki of 5.8 nM.
In the case of `COCCOCCOCCOCCOCCN1C[C@]2(CC[C@](c3ccccc3)(N(C)C)CC2)N(CC2CCC2)C1=O`, the Ki is reported as 19 nM.

What follows are compounds tested against Mu-type opioid receptor (Homo sapiens, UniProt P35372) (assay: Receptor Binding Assay: The hMOP receptor binding assay was performed as homogeneous SPA-assay (scintillation proximity assay) using the assay buffer 50 mM TRIS-HCl (pH 7.4) supplemented with 0.052 mg/ml bovine serum albumin (Sigma-Aldrich Co. St. Louis. Mo.). The final assay volume (250 ul/well) included 1 nM of [N-allyl-2.3-3H]naloxone as ligand (PerkinElmer Life Sciences. Inc. Boston. Mass. USA).
Work on `COCCOCCOCCN1C[C@]2(CC[C@](c3ccccc3)(N(C)C)CC2)N(CC2CCC2)C1=O` yielded a Ki of 39.5 nM.
Work on `CN(C)[C@]1(c2ccccc2)CC[C@]2(CC1)CN(CCS(C)(=O)=O)C(=O)N2CC1(O)CCC1` yielded a Ki of 210 nM.
`COCCOCCOCCOCCN1C[C@]2(CC[C@](c3ccccc3)(N(C)C)CC2)N(CC2CCC2)C1=O` gave a Ki of 69.8 nM.
`COC(=O)CCCN1C[C@]2(CC[C@](c3ccccc3)(N(C)C)CC2)N(CC2CCC2)C1=O` was tested, and the Ki was 1430 nM and 8530 nM.
In the case of `COCCOCCOCCOCCOCCOCCN1C[C@]2(CC[C@](c3ccccc3)(N(C)C)CC2)N(CC2CCC2)C1=O`, the Ki is reported as 755 nM.
In the case of `CN[C@]1(c2ccccc2)CC[C@]2(CC1)CN(CCS(C)(=O)=O)C(=O)N2CC1(O)CCC1`, the Ki is reported as 637 nM.
`CN(C)[C@]1(c2ccccc2)CC[C@]2(CC1)CN(CCCC#N)C(=O)N2CC1CCC1` gave a Ki of 99.7 nM.
`COCCN1C[C@]2(CC[C@](c3ccccc3)(N(C)C)CC2)N(CC2CCC2)C1=O` was tested, and the Ki was 58 nM.
In the case of `CN(C)[C@]1(c2ccccc2)CC[C@]2(CC1)CN(CCS(C)(=O)=O)C(=O)N2CC1CCC1`, the Ki is reported as 37.4 nM.
With `CN[C@]1(c2ccccc2)CC[C@]2(CC1)CN(CCS(C)(=O)=O)C(=O)N2CC1CCC1` the Ki was 87 nM.
`CNC(=O)CCCN1C[C@]2(CC[C@](c3ccccc3)(N(C)C)CC2)N(CC2CCC2)C1=O` gave a Ki of 40.5 nM.
For `CN(C)[C@]1(c2ccccc2)CC[C@]2(CC1)CN(CC(C)(C)C#N)C(=O)N2CC1CCC1`, the Ki was 84 nM.
In the case of `COCCOCCOCCOCCOCCOCCOCCN1C[C@]2(CC[C@](c3ccccc3)(N(C)C)CC2)N(CC2CCC2)C1=O`, the Ki is reported as 305 nM.
